# Test results as given in PubChem BioAssay AID624202 (National Center for Advancing Translational Sciences (NCATS), 2012).
# The list shows a part of the results, in another mix than the full data. The source made the active and inactive calls. The call rests on the fitted dose curve; in most records, active means well fitted activation curve with a large enough effect; inconclusive means small, poorly fitted or top-dose-only effect; inactive means no such curve, though single readings can be large or run the other way.
# Test: qHTS Assay to Identify Small Molecule Activators of BRCA1 Expression; further: nearly all actives have a fitted effect of over 80% in size
# Details: MCF7-BRCA1-FFLuc reporter, luminescence, 48 h, scaled: vehicle 0%, 10 µM genistein 100%; at 46.1 µM (top of the series)
row,Structure (SMILES),activation
1,O=[N+]([O-])c1cc([N+](=O)[O-])c(Nc2ccccn2)c([N+](=O)[O-])c1,inactive: -90.7%
2,CCc1ccc(OP(C)(=O)O)cc1,inactive: -1.24%
3,CP(=O)(Nc1ccccn1)Oc1ccccc1 (stereo not drawn),inactive: 11.2%
4,COc1ccccc1OP(C)(=O)Nc1ccc(C)cc1C (stereo not drawn),inactive: 0%
5,COc1ccccc1OP(C)(=O)Nc1ccc(Br)cc1 (stereo not drawn),inactive: -9.94%
6,CN(C)CCOC(=O)C(O)(c1ccccc1)C1CCCC1 (stereo not drawn),inactive: -4.68%
7,COc1ccc(OP(C)(=O)Nc2ccccn2)cc1 (stereo not drawn),inactive: -6.77%
8,CP(=O)(Nc1ccc(Cl)cc1Cl)Oc1ccccc1 (stereo not drawn),inactive: 18.9%
9,CCCCCCCCCCCCCCCC1C[N+](C)(C)CCOP(C)(=O)O1 (stereo not drawn),inactive: -71.1%
10,CP(=O)(OCCOc1ccccc1)OCCOc1ccccc1,inactive: -13.1%
11,Cc1cc(C)cc(OP(C)(=O)Nc2cccc(C(F)(F)F)c2)c1 (stereo not drawn),inactive: -11.3%
12,COc1ccc(OP(C)(=O)Nc2ccccc2Br)cc1 (stereo not drawn),inactive: -8.35%
13,COc1ccccc1OP(C)(=O)Nc1ccc(C)c(C)c1 (stereo not drawn),inactive: -4.5%
14,CCN(CC)CCCOC(=O)C(O)(c1ccccc1)C1CCCCC1 (stereo not drawn),inactive: -0.0274%
15,Cc1c([N+](=O)[O-])cc([N+](=O)[O-])c(Br)c1[N+](=O)[O-],inactive: -6.14%
16,CCCCCOc1ccc(NP(C)(=O)Oc2ccc(Cl)cc2Cl)cc1 (stereo not drawn),inactive: -65.9%
17,CP(=O)(Nc1ccccc1)Oc1ccc(F)cc1 (stereo not drawn),inactive: 0.943%

row,Structure (SMILES),activation
1,COc1ccc(OP(C)(=O)Nc2ccc(SC(F)(F)F)cc2)cc1 (stereo not drawn),inactive: -26.4%
2,CCOC(=O)c1ccc(NP(C)(=O)Oc2ccc(F)cc2)cc1 (stereo not drawn),inactive: -0.983%
3,O=C(OCCN1CCN(CCOCc2ccccc2)CC1)C(O)(c1ccccc1)c1ccccc1,inactive: 17.2%
4,CC(C)c1ccc(OP(C)(=O)Nc2ccc(SC(F)(F)F)cc2)cc1 (stereo not drawn),inactive: -64.4%
5,CP(=O)(Nc1ccccc1F)Oc1ccccc1 (stereo not drawn),inactive: 0.334%
6,CP(=O)(Nc1ccc2c(c1)OCCO2)Oc1ccccc1 (stereo not drawn),inactive: 3.95%
7,O=[N+]([O-])c1cc([N+](=O)[O-])c(C(F)(F)F)c([N+](=O)[O-])c1O,inactive: 1.33%
8,Cc1ccccc1NP(C)(=O)Nc1ccccc1C,inactive: -3.23%
9,CP(=O)(Nc1ccc(SC(F)(F)F)cc1)Oc1ccc(F)cc1 (stereo not drawn),inactive: -13.4%
10,CCOP(C)(=S)SCC(=O)NC(C)(CC)C(=O)O (stereo not drawn),inactive: 12%
11,Cc1cc(-c2cccc3ccccc23)c(C)cn1.O=[N+]([O-])c1cc([N+](=O)[O-])c(O)c([N+](=O)[O-])c1,inactive: -44%
12,O=[N+]([O-])c1ccc(OP2(=O)COCCO2)cc1 (stereo not drawn),inactive: -2.92%
13,Cc1c(C(c2ccc3c(c2)OCO3)c2c(C)n(C)n(-c3ccccc3)c2=O)c(=O)n(-c2ccccc2)n1C.O=[N+]([O-])c1cc([N+](=O)[O-])c(O)c([N+](=O)[O-])c1,inactive: 0.694%
14,COc1ccc(OP(C)(=O)Nc2cccc(Br)c2)cc1 (stereo not drawn),inactive: -3.16%
15,COc1ccc(NP(C)(=O)Oc2ccccc2OC)cc1 (stereo not drawn),inactive: 10.1%
16,CN(C)CCOC(=O)C(O)(c1ccccc1)C1CCCCC1 (stereo not drawn),inactive: 0%
